Reference: patent publication US11667675B2, “MASP inhibitory compounds and uses thereof” (Bayer Aktiengesellschaft, priority 2019, dated 2023)

By UniProt entry, the sequences of proteins in these tests, tags left out. Residues count along the entry.
UniProt Q9JJS8, 444-685: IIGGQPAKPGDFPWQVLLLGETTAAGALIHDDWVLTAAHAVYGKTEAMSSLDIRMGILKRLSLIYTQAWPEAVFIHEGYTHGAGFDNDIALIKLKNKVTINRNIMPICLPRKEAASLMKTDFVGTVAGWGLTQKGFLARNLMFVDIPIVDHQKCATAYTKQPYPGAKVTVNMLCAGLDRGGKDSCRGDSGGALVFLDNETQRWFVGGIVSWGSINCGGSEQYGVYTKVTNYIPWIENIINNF
UniProt Q9JJS8, 296-443: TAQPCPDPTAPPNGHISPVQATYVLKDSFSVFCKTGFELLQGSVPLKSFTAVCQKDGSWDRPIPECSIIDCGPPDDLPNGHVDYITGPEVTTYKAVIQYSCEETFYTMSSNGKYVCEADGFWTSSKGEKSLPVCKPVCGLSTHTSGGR
UniProt O00187, 297-444: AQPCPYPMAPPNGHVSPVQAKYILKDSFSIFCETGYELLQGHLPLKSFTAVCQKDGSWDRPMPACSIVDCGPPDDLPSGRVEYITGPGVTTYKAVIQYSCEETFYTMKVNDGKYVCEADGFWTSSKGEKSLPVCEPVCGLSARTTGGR
UniProt O00187, 445-686: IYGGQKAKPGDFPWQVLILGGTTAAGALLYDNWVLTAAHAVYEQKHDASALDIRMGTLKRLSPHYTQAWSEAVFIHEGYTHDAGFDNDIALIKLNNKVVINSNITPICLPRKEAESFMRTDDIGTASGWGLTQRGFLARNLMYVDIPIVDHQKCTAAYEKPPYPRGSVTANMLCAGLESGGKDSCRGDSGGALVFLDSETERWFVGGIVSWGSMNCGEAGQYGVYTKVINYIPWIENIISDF

Key:
rat MASP2 = target: T1, rat MASP2 (Rattus norvegicus, UniProt Q9JJS8); assay: Biochemical rat MASP2 assay (FRET substrate); conditions: average IC50; recombinant rat MASP2, FRET substrate
T1 construct: Ig-kappa secretion signal (N, cleaved yes); made in house; host or cells: HEK293 (ATCC No. CRL-1573)
Source text: (§1) 4. Biochemical Rat MASP-1 and MASP-2 Assay
(§2) 4.1 Recombinant Expression and Protein Production of Recombinant Human and Rat MASP1 and MASP2 Active Proteases.
A truncated cDNA sequence of rat MASP2 encoding the fragment corresponding to the amino acids 296-685 with a C-terminal His Tag and N-terminal Ig-kappa secretion signal (SEQ ID No: 5) was subcloned into the mammalian expression vector pcDNA3.1 (Invitrogen).
(§3) The MASP1 or MASP2 expression vectors were transfected into the HEK293 (ATCC No. CRL-1573) cell line using Lipofectamine LTX® Reagent (Thermo-Fischer), as described by the manufacturer. The mature form of the recombinant rat MASP1 and MASP2 proteases were secreted into the culture medium. The MASP1 and MASP2 proteins were purified from the conditioned media by affinity chromatography on Ni-NTA Superflow resin (Qiagen) as described by the manufacturer.
4.3 Biochemical Rat MASP2 Assay.
(§4) Recombinant rat MASP2 enzyme produced in the HEK 293 cells was diluted in the reaction buffer (50 mM HEPES pH 8,0; 100 mM NaCl; 0.01% CHAPS; 0.5 mM Gluthathione) to the concentration of 20 nM and 25 μl was transferred into each single well of 384-well white microtiter plate (Greiner Bio One 781075). 1 μl of the inhibitor compound solution (dissolved in DMSO, at the corresponding concentration) or pure DMSO as a control was added to the same wells. The enzymatic reaction was initiated by addition of 25 μl of 30 μM solution of the FRET substrate Abz-IEGRTSED-(Lys)Dnp-NH2 (SEQ ID NO: 9); (ABZ—2-aminobenzoyl; DNP_2,4-dinitrophenyl; custom synthesis by Jerini Peptide Technologies, Berlin) in the reaction buffer. The microtiter plate was incubated for 60-120 min at the temperature of 32 C. The increase of fluorescence intensity was measured in appropriate fluorescence plate reader (e.g. TECAN Ultra) using excitation wavelength of 320 nm and emission wavelength of 420 nm. IC50 values were calculated from percentage of inhibition of rat MASP2 activity as a function of test compound concentration.

human MASP2 = target: T2, human MASP2 (Homo sapiens, UniProt O00187); assay: Biochemical human MASP2 assay (FRET substrate); conditions: average IC50
T2 construct: Ig-kappa secretion signal (N, cleaved yes); made in house; host or cells: HEK293 (ATCC No. CRL-1573)
Source text: (§5) 2.1 Recombinant Expression and Protein Production of Recombinant Human MASP1 and MASP2 Active Proteases.
as §3, with “The mature form of the recombinant rat MASP1 and MASP2 proteases were secreted into the culture medium.” left out
2.3 Biochemical Human MASP2 Assay
as §4, with “Recombinant human” for “Recombinant rat”, “wells. […]” for “wells. The enzymatic reaction was initiated by addition of 25 μl of 30 μM solution of the FRET substrate Abz-IEGRTSED-(Lys)Dnp-NH2 (SEQ ID NO: 9); (ABZ—2-aminobenzoyl; DNP_2,4-dinitrophenyl; custom synthesis by Jerini Peptide Technologies, Berlin) in the reaction buffer.”, “of 340” for “of 320”, “of 490” for “of 420”, “of human” for “of rat”

human MASP1 = target: T3, human MASP1 (Homo sapiens, UniProt P48740); assay: Biochemical human MASP1 assay (FRET substrate); conditions: average IC50
T3 construct: Ig-kappa secretion signal (N, cleaved yes); made in house; host or cells: HEK293 (ATCC No. CRL-1573)
T3 sequence (P48740 297-448): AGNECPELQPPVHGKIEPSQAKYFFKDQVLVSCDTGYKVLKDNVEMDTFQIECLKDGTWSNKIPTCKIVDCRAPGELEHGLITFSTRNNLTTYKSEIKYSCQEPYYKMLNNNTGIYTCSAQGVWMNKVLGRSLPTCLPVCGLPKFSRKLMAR
T3 sequence (P48740 449-699): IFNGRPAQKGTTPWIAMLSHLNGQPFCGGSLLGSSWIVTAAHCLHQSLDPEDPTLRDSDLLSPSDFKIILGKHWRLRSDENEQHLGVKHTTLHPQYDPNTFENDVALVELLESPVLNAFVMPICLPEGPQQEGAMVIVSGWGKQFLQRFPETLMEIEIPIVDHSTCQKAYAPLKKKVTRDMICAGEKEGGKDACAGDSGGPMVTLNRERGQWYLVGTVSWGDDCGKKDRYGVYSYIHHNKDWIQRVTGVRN
Source text: as §5
as §3, with “The mature form of the recombinant rat MASP1 and MASP2 proteases were secreted into the culture medium.” left out
2.2 Biochemical Human MASP1 Assay
as §4, with “human MASP1” for “rat MASP2”, “The enzymatic reaction was initiated by addition of 25 μl of 30 μM solution of the FRET substrate Abz-IEGRTSED-(Lys)Dnp-NH2 (SEQ ID NO: 9); (ABZ—2-aminobenzoyl; DNP_2,4-dinitrophenyl; custom synthesis by Jerini Peptide Technologies, Berlin) in the reaction buffer.” left out

rat MASP1 = target: T4, rat MASP1 (Rattus norvegicus, UniProt Q8CHN8); assay: Biochemical rat MASP1 assay (FRET substrate); conditions: average IC50; recombinant rat MASP1, FRET substrate
T4 construct: Ig-kappa secretion signal (N, cleaved yes); made in house; host or cells: HEK293 (ATCC No. CRL-1573)
T4 sequence (Q8CHN8 302-453 limits assumed): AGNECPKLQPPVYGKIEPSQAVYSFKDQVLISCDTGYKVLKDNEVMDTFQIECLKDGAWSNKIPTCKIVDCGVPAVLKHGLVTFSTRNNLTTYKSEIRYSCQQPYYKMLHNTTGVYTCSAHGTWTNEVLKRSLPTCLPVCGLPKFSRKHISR
T4 sequence (Q8CHN8 454-704 limits assumed): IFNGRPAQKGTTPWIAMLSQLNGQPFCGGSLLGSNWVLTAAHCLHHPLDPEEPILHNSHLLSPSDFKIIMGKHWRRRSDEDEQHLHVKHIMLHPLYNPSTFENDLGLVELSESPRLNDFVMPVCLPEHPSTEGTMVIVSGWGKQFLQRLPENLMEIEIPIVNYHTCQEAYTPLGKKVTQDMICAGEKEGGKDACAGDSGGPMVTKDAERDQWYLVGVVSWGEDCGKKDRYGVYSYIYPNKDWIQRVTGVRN
Source text: as §1, §2
A truncated cDNA sequence of rat MASP1 encoding the fragment corresponding to the amino acids 302-704 with an C-terminal His Tag and N-terminal Ig-kappa secretion signal (SEQ ID No: 4) was subcloned into the mammalian expression vector pcDNA3.1 (Invitrogen).
as §3
4.2 Biochemical Rat MASP1 Assay.
Recombinant rat MASP1 enzyme produced in the HEK 293 cells was diluted in the reaction buffer (50 mM HEPES pH 8,0; 100 mM NaCl; 0.01% CHAPS; 0.5 mM Gluthathione) to the concentration of 4 nM and 25 μl was transferred into each single well of 384-well white microtiter plate (Greiner Bio One 781075). 1 μl of the inhibitor compound solution (dissolved in DMSO, at the corresponding concentration) or pure DMSO as a control was added to the same wells. The enzymatic reaction was initiated by addition of 25 μl of 40 μM solution of the FRET substrate Dabcyl-[…]-Glu(Edans)-NH2 (SEQ ID NO: 8); (Dabcyl—4-((4-(dimethylamino)phenyl)azo)benzoic acid; Edans—5-[(2-Aminoethyl) amino]naphthalene-1-sulfonyl; custom synthesis by Jerini Peptide Technologies, Berlin) in the reaction buffer. The microtiter plate was incubated for 60-120 min at the temperature of 32 C. The increase of fluorescence intensity was measured in appropriate fluorescence plate reader (e.g. TECAN Ultra) using excitation wavelength of 340 nm and emission wavelength of 490 nm. IC50 values were calculated from percentage of inhibition of rat […] activity as a function of test compound concentration.

## ((N-Me)G)-IC+SRSLP-(Oic)-I-(Pen)+I-((5-Azaspiro[2.4]heptane-1-carboxylic acid)OH [Example 164]
Rat MASP2
  IC50: 28 nM
Human MASP2
  IC50: 57 nM
Human MASP1
  IC50: 4 nM
Rat MASP1
  IC50: 79 nM
